pIC50: −log10 of the molar value.
Experiments:
[1] = MTT cytotoxicity assay on Vero cells; format: cell-based; conditions: calculated after 2 h of peptide treatment
[2] = test system: MeV; conditions: 2 h

CCCC[C@H](NC(=O)[C@@H](CC(C)C)NC(=O)[C@H](Cc1ccccc1)NC(=O)[C@H](CCCCN)NC(=O)[C@H](CO)NC(=O)[C@H](Cc1ccccc1)NC(=O)[C@H](Cc1c[nH]c2ccccc12)NC(=O)[C@@H]1CCCN1C(=O)[C@@H](NC(=O)[C@H](Cc1ccccc1)NC(=O)CNC(=O)CNC(=O)[C@@H](N)CSCC(=O)NCCOCCOCCOCCOCCC(=O)O[C@H]1CC[C@@]2(C)C(=CC[C@H]3[C@@H]4CC[C@H]([C@H](C)CCCC(C)C)[C@@]4(C)CC[C@@H]32)C1)C(C)C)C(=O)N[C@@H](CCCNC(=N)N)C(=O)N[C@H](C(=O)N[C@@H](CC(C)C)C(N)=O)[C@@H](C)CC [TL6.4, H-[Cholesterol-PEG4]-Cys-Gly-Gly-Phe-Val-Pro-Trp-Phe-Ser-Lys-Phe-DLeu-Nle-Arg-Ile-Leu-NH2]
CC50 [1]: > 100 µM | pIC50 [2]: 4.54 | IC90 [2]: 49.9 µM
